The nature of this data set: Intra-pulmonary steady-state concentrations (plasma, ELF, alveolar cells) after multiple IV doses in healthy adult subjects. The following applies: human, in vivo, 100 mg. On the procedure:
The study was designed as a single-center, multiple-dose, open-label study to determine concentrations of omadacycline and tigecycline in pulmonary compartments (ELF and AC) in healthy adult subjects after administration of omadacycline and tigecycline to steady state levels of dosing. A total of 62 healthy volunteers participated in the study, who were randomized in a 2:1 ratio to receive either omadacycline or tigecycline. Of these, 42 received omadacycline as 5 intravenous doses of 100 mg administered as 30 minute infusions at t=0, 12, 24, 48 and 72 hours. The remaining 20 subjects received tigecycline as 1 intravenous dose of 100 mg administered as a 30 minute infusion at t=0, followed by 6 intravenous doses of 50 mg administered as 30 minute infusions at t=12, 24, 36, 48, 60, and 72 hours. A study completion visit was conducted on the day following the final test article dose. There was a final follow-up assessment 7 to 14 days following the subject's last dose of test article which may be completed by telephone contact or other interactive technology unless an examination was needed to evaluate adverse events or abnormalities noted at the study completion visit.
Plasma PK samples were collected pre-dose and at 0.5, 1, 1.5, 2, 3, 4, 6, 8, 12 and 24 hours post-dose on day 4. A sample for 24 hours was collected only for omadacycline. […]

One may read the clearance as the rate of elimination divided by the concentration. High values mean a high capacity for elimination, low ones a low capacity for elimination. A word on the half-life: it is how long it takes for the measured level to halve.

The molecule `CN(C)c1cc(CNCC(C)(C)C)c(O)c2c1C[C@H]1C[C@H]3C(N(C)C)C(O)=C(C(N)=O)C(=O)[C@@]3(O)C(O)=C1C2=O` (stereo partly drawn) [Omadacycline, (4aS,5aR,12aS)-4,7-bis(dimethylamino)-3,10,12,12a-tetrahydroxy-9-((neopentylamino)methyl)-1,11-dioxo-1,4,4a,5,5a,6,11,12a-octahydrotetracene-2-carboxamide] had a clearance of 134 mL/min and a half-life of 14.7 ± 4.2 h.

Values taken from US20250332178A1, “METHODS OF TREATING MYCOBACTERIAL INFECTIONS USING TETRACYCLINE COMPOUNDS” (priority 2018, published 2025).
